Assay results from article PMC10145651, “Modulation of the 5-Lipoxygenase Pathway by Chalcogen-Containing Inhibitors of Leukotriene A4 Hydrolase” (International Journal of Molecular Sciences, 2023).

Target: T1, LTA4H (Homo sapiens, UniProt P09960)
T1 sequence (P09960 1-611): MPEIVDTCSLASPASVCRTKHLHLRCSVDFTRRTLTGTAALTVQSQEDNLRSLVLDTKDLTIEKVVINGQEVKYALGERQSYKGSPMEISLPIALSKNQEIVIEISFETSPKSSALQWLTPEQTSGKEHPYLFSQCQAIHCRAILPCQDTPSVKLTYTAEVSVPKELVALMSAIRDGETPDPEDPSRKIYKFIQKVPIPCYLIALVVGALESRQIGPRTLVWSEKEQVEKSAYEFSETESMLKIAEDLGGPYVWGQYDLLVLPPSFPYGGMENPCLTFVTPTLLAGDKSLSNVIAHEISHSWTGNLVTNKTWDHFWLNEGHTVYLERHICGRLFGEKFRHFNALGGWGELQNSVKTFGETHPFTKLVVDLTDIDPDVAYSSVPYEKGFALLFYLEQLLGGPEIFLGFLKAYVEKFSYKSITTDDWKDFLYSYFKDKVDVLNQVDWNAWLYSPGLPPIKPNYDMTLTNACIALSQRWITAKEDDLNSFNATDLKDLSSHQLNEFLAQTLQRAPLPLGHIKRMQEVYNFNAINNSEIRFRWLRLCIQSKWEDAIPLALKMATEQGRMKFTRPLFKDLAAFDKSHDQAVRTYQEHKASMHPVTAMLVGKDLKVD
Experiment: Peptidase assay of LTA4H with pNa and AMC conjugates
Type: biochemical
Set-up: made in house; host or cells: Escherichia coli JM101
Settings: in parentheses
Protocol: In addition, the aminopeptidase assay was performed with p-nitroanilide (pNa) and 7-amido-4-methylcoumarin (AMC) conjugates containing different N-terminal amino acids. Incubations were carried out with 1 μg LTA4H and 1 mM pNa substrates or 5 µM AMC substrates in 400 μL 10 mM Tris-HCl pH 7.8 containing 100 mM KCl at room temperature for 30 min. The absorbance of released pNa was measured after every 5 min at 405 nm using a TECAN Infinite M200 plate reader. The measurements with AMC derivatives were carried out using a black polystyrene 96-well plate and the fluorescence of released AMC at 360 nm/460 nm (ex/em) was recorded. Specific activities were calculated based on the standard curves of free pNA and AMC (Figure S10). The activation (AC50) or inhibition constants (IC50) were determined using the non-linear regression approach in the GraphPad Prism 9 program.

[1] = vs LTA4H without inhibitor (decrease)
[2] = vs LTA4H without inhibitor (increase)

SMILES: Nc1nc(-c2ccc(Cc3ccccc3)cc2)cs1 [ARM1, 4-(4-benzylphenyl) thiazol-2-amine, reference compound]
- fold change of specific activity with L-Pro-pNa (vs LTA4H without inhibitor): 1 x
- fold change of specific activity with L-Arg-AMC [1]: 3 x
- fold change of specific activity with L-Arg-pNa [1]: 94 x
- fold change of specific activity with L-Pro-AMC [1]: 2 x
- fold change of specific activity with L-Ala-pNa [2]: 8 x
- fold change of specific activity with L-Leu-pNa [2]: 12 x
- fold change of specific activity with L-Val-pNa [2]: 30 x
